Measured values taken from US20050130235A1 (CALIFORNIA INSTITUTE OF TECHNOLOGY, published 2005).

Amino acid sequences for entries named in this document (tags omitted).
UniProt P02470, whole entry, chain 1 of 2: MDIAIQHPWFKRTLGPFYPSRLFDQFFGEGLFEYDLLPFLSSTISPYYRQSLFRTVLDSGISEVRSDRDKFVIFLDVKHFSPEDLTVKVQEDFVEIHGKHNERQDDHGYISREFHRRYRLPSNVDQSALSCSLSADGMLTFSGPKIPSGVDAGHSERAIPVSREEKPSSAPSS
Bovine lens α-crystallin (a mixture of A and B chains), UniProt P02510, whole entry, chain 2 of 2: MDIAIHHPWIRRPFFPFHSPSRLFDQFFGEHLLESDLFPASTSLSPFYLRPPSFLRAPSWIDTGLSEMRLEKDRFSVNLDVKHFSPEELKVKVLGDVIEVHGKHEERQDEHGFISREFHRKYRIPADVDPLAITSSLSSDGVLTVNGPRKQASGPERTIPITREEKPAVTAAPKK

Target: Bovine lens α-crystallin (a mixture of A and B chains) (bovine, UniProt P02470 1-173; P02510 1-175, O-GlcNAc at Ser162, stoichiometry ~10%)
Experiment: lectin blot, WGA-HRP 1:8000
Method: WGA western blotting was performed essentially as described.(25, 27) Briefly, α-crystallin and controls were resolved by 15% SDS-PAGE and electrophoretically transferred to nitrocellulose. Blots were blocked for 1 h in 3% periodate-treated BSA in PBS, rinsed 2×15 min with PBS-0.05% tween-20 (PBST), and probed for 2 h with WGA-HRP (1:8000 in PBST). Subsequently, blots were rinsed with PBST, washed 3×10 min, then 3×20 min before chemiluminescence detection on film (FIG. 12).

B1: wheat-germ agglutinin (WGA) lectin (other, UniProt P10968 27-197, looked up)
chain: QRCGEQGSNMECPNNLCCSQYGYCGMGGDYCGKGCQNGACWTSKRCGSQAGGATCTNNQCCSQYGYCGFGAEYCGAGCQGGPCRADIKCGSQAGGKLCPNNLCCSQWGFCGLGSEFCGGGCQSGACSTDKPCGKDAGGRVCTNNYCCSKWGSCGIGPGYCGAGCQSGGCDG
modifications: conjugated to HRP (WGA-HRP)
notes: Used as an HRP conjugate for blotting; also called WGA-HRP
binding result: no binding
